Target: [^3 H]5-HT reuptake (Rattus norvegicus, UniProt P31652)
Conditions: read-out: Ki (nM) [^3 H]5-HT; in vitro monoamine reuptake inhibition; rat brain tissue; means of >3 separate determinations

By UniProt entry, the sequences of proteins in these tests, tags left out.
UniProt P31652, whole entry: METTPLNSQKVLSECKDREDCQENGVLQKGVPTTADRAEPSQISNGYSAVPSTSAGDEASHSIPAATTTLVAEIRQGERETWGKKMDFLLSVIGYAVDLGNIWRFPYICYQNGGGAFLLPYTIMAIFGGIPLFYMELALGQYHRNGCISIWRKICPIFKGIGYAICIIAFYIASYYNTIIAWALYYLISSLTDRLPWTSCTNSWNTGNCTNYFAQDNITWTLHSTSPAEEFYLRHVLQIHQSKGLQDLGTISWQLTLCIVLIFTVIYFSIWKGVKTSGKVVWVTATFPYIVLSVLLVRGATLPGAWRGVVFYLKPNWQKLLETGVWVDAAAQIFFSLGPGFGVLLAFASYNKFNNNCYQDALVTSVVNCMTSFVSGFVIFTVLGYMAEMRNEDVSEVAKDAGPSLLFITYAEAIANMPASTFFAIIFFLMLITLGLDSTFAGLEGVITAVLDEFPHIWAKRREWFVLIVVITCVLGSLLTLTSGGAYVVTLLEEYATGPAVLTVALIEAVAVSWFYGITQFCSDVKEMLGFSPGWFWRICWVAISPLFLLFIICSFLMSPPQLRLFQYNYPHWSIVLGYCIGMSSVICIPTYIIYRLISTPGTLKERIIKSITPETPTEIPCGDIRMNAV

Compound | Ki [nM]
CNC(CC(C)C)C1(c2ccc(Cl)cc2)CCC1 (centres unmarked) [Example 1, N-{1-[1-(4-chlorophenyl)cyclobutyl]-3-methylbutyl}-N-methylamine] | 18
CC(C)CC(N)C1(c2ccc(Cl)cc2)CCC1 (centres unmarked) [Example 2, 1-[1-(4-chlorophenyl)cyclobutyl]-3-methylbutylamine] | 26

From patent US6288125A, “Treatment of hiatial hernia” (Knoll Pharmaceuticals Company, priority 2000, dated 2001)
